The entries are a selection whose mix differs from that of the whole data set. Activity calls are given as the source filed them. No stated cut-off is given here; in the data, active means binding response below about 16% or above about 210%; inactive means in between.
Target: Mitogen-activated protein kinase kinase kinase 2 (Homo sapiens) (UniProt Q9Y2U5)
Experiment: wildtype MEKK2 PB1-MEK5 interaction enhancers or blockers – biochemical, single concentration, multiplex bead flow cytometry, confirmation (AID 1892)
Conditions: Alexa488-MEK5 binding to MEKK2 WT, at 10 µM, actives lie on both sides

| Structure (SMILES) | binding response (% of control) |
| --- | --- |
| CCC1=CC2Cc3nc4ccc(Cl)cc4c(N)c3C(C1)C2 (configuration not stated) | inactive: 140% |
| CN(CCCl)Cc1cc(Cl)c(NC2=NCCN2)c(Cl)c1 | inactive: 122% |

Reference: PubChem BioAssay AID1892 (NMMLSC, 2009)
